Values quoted from earlier work, collected in publication PMC6048117 (Scientific Reports, 2018).

Substance: glucose-dependent insulinotropic polypeptide [GIP]
- Half-life: less than 5 min
